Measured values taken from ChEMBL document CHEMBL1142267, “Optimization of alpha-ketooxazole inhibitors of fatty acid amide hydrolase” (J Med Chem, 2008).

Columns and labels:
[1] = Selectivity for rat recombinant FAAH over KIAA1363
[2] = Selectivity for rat recombinant FAAH over TGH

Question: For `O=C(CCc1ccc(Oc2ccccc2)cc1)c1ncc(-c2ccccn2)o1`, which Ratio IC50 [1] is on record?
Answer: > 50000

Question: What about the Ratio IC50 [2] of the same molecule?
Answer: 100
